AlphaSeq binding of Ab-14 heavy chain variants to a spike HR2 peptide

Target peptide (SARS-CoV-2 spike, HR2 region): PDVDLGDISGINAS

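Variants in AAYL49 differ from the parent at up to three CDR positions; double and triple changes were sampled at random. The scFvs were displayed on barcoded MATa yeast, the peptide on MATalpha yeast. Pairs that bind mate more often; barcode pairs of the diploids are counted by sequencing. Read counts were normalised to the haploid input and turned into Kd by a linear fit to BCL2-family pairs of known affinity, for each replicate. There are three technical replicates.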

Parent scFv Ab-14: VH joined to VL by the linker GGGGSGGGGSGGGGS. Changes lie in the heavy chain CDRs alone.
VH: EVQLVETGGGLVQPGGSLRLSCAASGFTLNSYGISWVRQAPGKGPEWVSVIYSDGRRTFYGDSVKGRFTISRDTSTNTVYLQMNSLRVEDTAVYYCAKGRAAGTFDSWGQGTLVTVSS
VL: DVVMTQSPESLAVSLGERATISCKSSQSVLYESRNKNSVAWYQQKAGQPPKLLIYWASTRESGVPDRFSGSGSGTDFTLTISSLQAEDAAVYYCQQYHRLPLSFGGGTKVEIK

Substitutions are numbered in sequence along the VH above, starting at 1 (not Kabat).
Numbers give log10(Kd / nM), so 0 is 1 nM and 3 is 1 µM. Smaller is tighter.
A mean of the replicates is given; it leaves out those without a signal.
"ND" marks a missing value. The strain was present, yet no cells mated with the target were sequenced in that replicate, which points to weak or no binding.
Nonspecific signal, from three strains lacking the peptide, appeared in 15% of pairings of library AAYL49, centred on 4.06 (5% of these signals below 2.83); values are not corrected for it. For each scFv, signals with the empty controls are counted beside the result, with their mean in brackets.

changes	log10 Kd, replicates	log10 Kd (nM), mean	signal with controls
F27I V50Y G103P	ND / ND / ND	ND	0 of 9
Y32H F59A T104N	1.21 / 1.24 / 1.79	1.41	0 of 9
I51A Y60H F105R	3.85 / 3.57 / ND	3.71	0 of 9
L29T F59G Y60A	ND / ND / ND	ND	0 of 9
Y32K V50I G99N	3.84 / 3.04 / ND	3.44	0 of 9
L29D Y32D S63N	ND / ND / ND	ND	0 of 9
L29C V50G K65G	ND / ND / ND	ND	0 of 9
N30W	1.98 / 1.86 / 2.16	2.00	1 of 9 (2.74)
F27T I34G I51A	4.50 / ND / ND	4.50	6 of 9 (4.47)
R57T G99Y T104N	ND / ND / 5.36	5.36	3 of 9 (3.96)
S53E G55I R57K	ND / 4.70 / 5.71	5.20	5 of 9 (4.51)
V64K A102V D106G	4.52 / ND / ND	4.52	2 of 9 (5.28)
G26C G55K R56Y	ND / ND / ND	ND	0 of 9
Y60P R100S	ND / ND / ND	ND	3 of 9 (4.34)
T28Q G103A T104P	2.06 / 1.83 / 2.23	2.04	2 of 9 (4.36)
Y60C D62G A101D	ND / 4.05 / 4.49	4.27	9 of 9 (4.64)
G26V T28V Y60A	3.66 / ND / ND	3.66	1 of 9 (3.84)
G26A D54L F105Q	ND / 4.13 / ND	4.13	1 of 9 (2.30)
T28I S35Q F59M	ND / ND / ND	ND	0 of 9
G61N D62V S107D	ND / 3.19 / 6.23	4.71	2 of 9 (4.88)
F27P G33W R56W	5.61 / ND / ND	5.61	4 of 9 (3.69)
T28R D62V T104V	ND / ND / ND	ND	0 of 9
G26D F59A	0.41 / 0.66 / 0.47	0.51	0 of 9
G33P S53D F105N	ND / 2.74 / ND	2.74	4 of 9 (3.91)
V64Y A102S S107A	ND / ND / ND	ND	0 of 9
S35P I51D F59K	3.99 / ND / ND	3.99	0 of 9
T28Y S35T K65I	ND / ND / ND	ND	0 of 9
F27K S53A F59T	1.10 / 1.30 / 1.78	1.39	3 of 9 (4.11)
Y32R G61S G99T	ND / ND / ND	ND	1 of 9 (2.69)
Y60N R100Q A101N	2.41 / 2.00 / 2.48	2.30	2 of 9 (4.97)
T28C G33K V50M	ND / ND / ND	ND	0 of 9
G26P V50W G103T	ND / ND / ND	ND	1 of 9 (4.80)
Y60E S63R	ND / 3.61 / 4.85	4.23	2 of 9 (4.23)
G26F T28G	1.03 / 1.35 / 1.30	1.22	0 of 9
F27K S53E G61L	ND / ND / ND	ND	0 of 9
S31D F105Q	0.65 / 0.85 / 0.56	0.69	1 of 9 (3.49)
S31W V64P D106T	ND / ND / ND	ND	0 of 9
I34S R56D T58A	ND / 2.75 / ND	2.75	1 of 9 (3.41)
I51K Y52E G103M	5.31 / 3.29 / 4.37	4.32	4 of 9 (4.87)
G26I T28W D106H	ND / 3.71 / ND	3.71	0 of 9
N30D T58D F59T	ND / ND / ND	ND	1 of 9 (3.10)
G26P S35K D62L	ND / 4.99 / 5.00	5.00	5 of 9 (3.92)
F27Q N30G D54W	4.55 / 4.49 / ND	4.52	6 of 9 (3.95)
Y60A S63Q T104Q	4.16 / 2.88 / 3.41	3.48	6 of 9 (4.43)
L29M S35W	ND / ND / ND	ND	1 of 9 (3.73)
S35M V50K R56M	ND / ND / ND	ND	0 of 9
S31M V50W G55R	ND / ND / ND	ND	0 of 9
F27K Y32M F105S	5.01 / 4.33 / 4.26	4.53	5 of 9 (4.49)
F27K L29H K65W	ND / 2.64 / ND	2.64	0 of 9

Data: MIT Lincoln Laboratory AlphaSeq set, Engelhart et al. 2022, doi:10.1038/s41597-022-01779-4, as distributed in FLAb.